Test results taken from paper PMC10860701 (ACS Medicinal Chemistry Letters, 2024).

System: THP-1 cells
Test: Measurement of cellular NAD+ levels in THP-1 cell cultures
Assay type: cell-based, human
Details: for potency in THP-1 cell cultures relative to NP-A3-B2: full concentration-response, NAD+

COc1ccc(CN(CCC2(C(C)C)CCOC(C)(C)C2)C(=O)c2ccsc2)cc1 (stereo not drawn) [JGB-1-127]
potency in THP-1 cell cultures relative to NP-A3-B2: improved potency

COc1ccc(CN(CCC2(C(C)C)CCOC(C)(C)C2)C(=O)c2cccs2)cc1 (stereo not drawn) [JGB-1-137]
concentration response for FK866 in the presence of compound (THP-1 NAD+, Figure 3B): right-shifted
potency in THP-1 cell cultures relative to NP-A3-B2: improved potency
